In series [1] the target is CYP1A2 (Homo sapiens, UniProt P05177). Description: CYP1A2 phenacetin O-deethylase inhibition in pooled human liver microsomes (substrate cocktail, LC-MS/MS). As to the method: (§1) After a 3-min pre-incubation at 37 °C, the reactions were initiated by addition of NADPH and incubation proceeded for 15 min at 37 °C in a shaking water bath. […] The incubation mixtures were centrifuged (13,000× g, 4 min, 4 °C). All assays were performed in triplicate and mean values were used in calculations.
(§2) Each reaction was initiated by adding the seven-CYP probe substrate cocktail.
(§3) The metabolites formed from CYP substrates were quantified simultaneously by a LC-MS/MS method described previously. The ESI source settings in positive-ion mode for metabolite ionization were: capillary voltage, 4200 V; vaporizer temperature, 350 °C; capillary temperature, 330 °C; sheath gas pressure, 35 psi; and auxiliary gas pressure, 15 psi. […] Analytical data were processed using Xcalibur software (version 2.1, Thermo Scientific).
(§4) The apparent kinetic parameters for inhibitory potential (Ki and kinact values) and inhibition mode were estimated from the fitted curves using the Enzyme Kinetics program (ver. 1.1; Systat Software Inc., San Jose, CA, USA).
(In general: Liver microsomes are a subcellular fraction often used to study metabolism.)

Sequences of proteins named here, by UniProt entry; tags and fusion partners are left off. A change or cut given only in a name is not applied to a line headed by its entry.
UniProt P05177, whole entry: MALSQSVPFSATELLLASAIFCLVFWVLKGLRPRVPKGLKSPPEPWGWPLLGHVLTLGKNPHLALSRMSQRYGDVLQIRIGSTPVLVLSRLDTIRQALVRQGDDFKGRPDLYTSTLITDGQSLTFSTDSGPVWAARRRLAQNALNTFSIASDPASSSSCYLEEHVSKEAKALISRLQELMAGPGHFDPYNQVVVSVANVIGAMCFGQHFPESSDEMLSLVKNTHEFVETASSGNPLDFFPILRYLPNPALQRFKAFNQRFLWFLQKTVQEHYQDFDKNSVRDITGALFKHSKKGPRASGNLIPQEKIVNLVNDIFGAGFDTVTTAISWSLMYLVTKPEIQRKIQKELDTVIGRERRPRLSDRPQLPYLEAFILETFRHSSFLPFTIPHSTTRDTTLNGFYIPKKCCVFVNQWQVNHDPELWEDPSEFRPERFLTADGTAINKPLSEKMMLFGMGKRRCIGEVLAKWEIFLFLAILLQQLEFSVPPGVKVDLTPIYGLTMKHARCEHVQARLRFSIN
UniProt P20813: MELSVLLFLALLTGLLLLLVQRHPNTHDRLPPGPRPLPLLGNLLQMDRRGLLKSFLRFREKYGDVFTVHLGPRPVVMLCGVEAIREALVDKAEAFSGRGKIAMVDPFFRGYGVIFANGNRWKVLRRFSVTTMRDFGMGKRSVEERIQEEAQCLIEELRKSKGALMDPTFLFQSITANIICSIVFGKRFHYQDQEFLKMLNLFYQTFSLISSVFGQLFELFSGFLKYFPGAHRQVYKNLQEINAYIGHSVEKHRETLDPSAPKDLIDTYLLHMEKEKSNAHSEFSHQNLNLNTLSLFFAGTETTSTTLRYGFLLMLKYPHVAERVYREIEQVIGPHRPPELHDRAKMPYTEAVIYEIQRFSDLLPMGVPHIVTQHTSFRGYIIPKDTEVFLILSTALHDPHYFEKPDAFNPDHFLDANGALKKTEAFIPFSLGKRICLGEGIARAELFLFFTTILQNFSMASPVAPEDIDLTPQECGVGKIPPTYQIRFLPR
UniProt P10632, whole entry: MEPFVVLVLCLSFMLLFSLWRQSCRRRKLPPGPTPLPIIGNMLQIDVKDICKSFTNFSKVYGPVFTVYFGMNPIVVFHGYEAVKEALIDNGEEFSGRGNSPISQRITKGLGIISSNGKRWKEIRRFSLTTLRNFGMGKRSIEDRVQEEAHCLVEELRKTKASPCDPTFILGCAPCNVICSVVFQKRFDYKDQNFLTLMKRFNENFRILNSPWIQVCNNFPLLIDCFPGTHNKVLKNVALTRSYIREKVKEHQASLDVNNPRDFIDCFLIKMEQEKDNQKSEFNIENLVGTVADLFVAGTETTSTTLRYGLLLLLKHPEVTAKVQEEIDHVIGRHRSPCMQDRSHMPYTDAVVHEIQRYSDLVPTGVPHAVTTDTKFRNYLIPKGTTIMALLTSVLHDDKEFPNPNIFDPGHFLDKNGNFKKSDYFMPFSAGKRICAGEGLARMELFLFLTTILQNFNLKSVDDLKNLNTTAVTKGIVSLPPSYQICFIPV
UniProt P33261, whole entry: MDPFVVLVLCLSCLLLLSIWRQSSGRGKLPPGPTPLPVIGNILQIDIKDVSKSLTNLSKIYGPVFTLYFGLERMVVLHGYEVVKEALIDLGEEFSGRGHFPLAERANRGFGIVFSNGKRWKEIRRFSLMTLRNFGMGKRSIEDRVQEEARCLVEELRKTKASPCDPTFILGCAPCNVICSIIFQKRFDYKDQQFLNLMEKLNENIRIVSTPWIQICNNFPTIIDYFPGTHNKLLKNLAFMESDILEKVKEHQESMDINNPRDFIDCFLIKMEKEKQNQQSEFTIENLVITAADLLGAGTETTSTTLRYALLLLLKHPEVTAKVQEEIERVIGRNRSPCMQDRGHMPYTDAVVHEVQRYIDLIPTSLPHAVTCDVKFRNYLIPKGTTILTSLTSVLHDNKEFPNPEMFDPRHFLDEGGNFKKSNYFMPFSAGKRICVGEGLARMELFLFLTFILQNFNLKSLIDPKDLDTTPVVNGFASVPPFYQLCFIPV
UniProt P10635, whole entry: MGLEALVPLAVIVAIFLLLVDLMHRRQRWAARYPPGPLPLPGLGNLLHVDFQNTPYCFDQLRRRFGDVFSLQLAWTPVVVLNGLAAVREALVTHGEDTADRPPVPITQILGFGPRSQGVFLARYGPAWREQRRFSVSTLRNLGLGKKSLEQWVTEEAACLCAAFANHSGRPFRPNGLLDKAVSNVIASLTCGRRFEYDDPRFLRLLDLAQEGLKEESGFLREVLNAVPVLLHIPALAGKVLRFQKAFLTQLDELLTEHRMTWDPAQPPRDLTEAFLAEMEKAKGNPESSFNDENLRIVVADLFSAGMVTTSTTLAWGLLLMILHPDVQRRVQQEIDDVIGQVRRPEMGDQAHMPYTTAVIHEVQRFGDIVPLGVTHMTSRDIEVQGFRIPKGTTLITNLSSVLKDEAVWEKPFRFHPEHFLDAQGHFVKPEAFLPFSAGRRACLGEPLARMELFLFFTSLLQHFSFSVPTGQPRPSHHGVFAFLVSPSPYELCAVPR

The target of series [2] is T1, CYP2A6 (Homo sapiens, UniProt P11509).
T1 sequence (P11509 1-494): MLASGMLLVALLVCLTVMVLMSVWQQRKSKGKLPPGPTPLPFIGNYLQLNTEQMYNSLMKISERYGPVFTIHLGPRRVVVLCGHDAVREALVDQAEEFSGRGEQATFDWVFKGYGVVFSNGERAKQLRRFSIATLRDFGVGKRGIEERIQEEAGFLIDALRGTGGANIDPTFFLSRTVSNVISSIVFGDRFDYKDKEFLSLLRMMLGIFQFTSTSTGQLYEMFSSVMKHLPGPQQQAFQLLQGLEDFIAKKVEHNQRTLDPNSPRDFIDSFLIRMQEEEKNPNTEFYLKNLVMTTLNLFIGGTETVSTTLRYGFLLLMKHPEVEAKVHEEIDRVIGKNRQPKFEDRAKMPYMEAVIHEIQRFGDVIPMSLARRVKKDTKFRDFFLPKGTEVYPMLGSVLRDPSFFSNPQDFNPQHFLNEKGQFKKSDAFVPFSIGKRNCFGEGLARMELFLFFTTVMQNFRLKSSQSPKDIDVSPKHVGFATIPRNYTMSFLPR
Nature of the series: CYP2A6 coumarin 7-hydroxylase inhibition in pooled human liver microsomes (substrate cocktail, LC-MS/MS). As to the method: as §1, §2, §3, §4

For series [3], the target named is CYP2B6 (Homo sapiens, UniProt P20813). Description: CYP2B6 bupropion hydroxylase inhibition in ultrapool human liver microsomes. As to the method: All incubations were performed in triplicate, and average values were used.
as §3, §4

Series [4] concerns the target T2, CYP2C8 (Homo sapiens, UniProt P10632).
T2 construct: tissue Corning Life Sciences; host or cells: pooled human liver microsomes (150 donors)
Nature of the series: CYP2C8 amodiaquine N-deethylase inhibition and mechanism-based inactivation in human liver microsomes. It is filed as in vitro ADME. To be noted: for kinact: inactivation of CYP2C8 amodiaquine N-deethylation, human liver microsomes. Here is the method: as §1, §2
The second reaction was terminated after incubation for 10 min by adding 100-µL amounts of ice-cold methanol containing d9-1′-hydroxybufuralol. The incubation mixtures were centrifuged (13,000× g, 4 min, 4 °C), and then 50 µL of each supernatant was diluted with 50 µL of water. Aliquots (5 µL) of the diluted supernatants were analyzed by LC-MS/MS.
The metabolites formed from CYP substrates were quantified simultaneously by a LC-MS/MS method described previously. The ESI source settings in positive-ion mode for metabolite ionization were: capillary voltage, 4200 V; vaporizer temperature, 350 °C; capillary temperature, 330 °C; sheath gas pressure, 35 psi; and auxiliary gas pressure, 15 psi. Quantification was performed by selected reaction monitoring (SRM) of the [M + H]^+ ion and the related product ion for each metabolite: acetaminophen, 152.1 > 110.3; N-desethylamodiaquine, 328.1 > 283.0; 7-hydroxycoumarin, 163.0 > 107.2; 4-hydroxybupropion, 256.1 > 238.0; 4′-hydroxydiclofenac, 312.0 > 231.1; 4′-hydroxy-mephenytoin; 235.1 > 150.1; 1′-hydroxybufuralol, 278.1 > 186.1; 1′-hydroxymidazolam, 341.9 > 324.0; ^13C2,^15N-acetaminophen 155.1 > 111.2; and d9-1′-hydroxybufuralol, 287.2 > 187.0. Analytical data were processed using Xcalibur software (version 2.1, Thermo Scientific).
as §4

The target in series [5] is CYP2C19 (Homo sapiens, UniProt P33261). Nature of the series: CYP2C19 [S]-mephenytoin 4′-hydroxylase inhibition in human liver microsomes. As to the method: as §1, §2, §3, §4
For series [6], the target named is CYP2D6 (Homo sapiens, UniProt P10635). Description: CYP2D6 bufuralol 1′-hydroxylase inhibition in human liver microsomes. As to the method: as §1, §2, §3, §4
Series [7] deals with T3, UGT2B7 (Homo sapiens, UniProt P16662).
T3 construct: To determine Ki values of AM-2201 for UGT1A3 and UGT2B7 enzymes, human liver microsomes (0.15 mg/mL) were incubated; tissue Corning Life Sciences; host or cells: pooled human liver microsomes (150 donors)
T3 sequence (P16662 24-529): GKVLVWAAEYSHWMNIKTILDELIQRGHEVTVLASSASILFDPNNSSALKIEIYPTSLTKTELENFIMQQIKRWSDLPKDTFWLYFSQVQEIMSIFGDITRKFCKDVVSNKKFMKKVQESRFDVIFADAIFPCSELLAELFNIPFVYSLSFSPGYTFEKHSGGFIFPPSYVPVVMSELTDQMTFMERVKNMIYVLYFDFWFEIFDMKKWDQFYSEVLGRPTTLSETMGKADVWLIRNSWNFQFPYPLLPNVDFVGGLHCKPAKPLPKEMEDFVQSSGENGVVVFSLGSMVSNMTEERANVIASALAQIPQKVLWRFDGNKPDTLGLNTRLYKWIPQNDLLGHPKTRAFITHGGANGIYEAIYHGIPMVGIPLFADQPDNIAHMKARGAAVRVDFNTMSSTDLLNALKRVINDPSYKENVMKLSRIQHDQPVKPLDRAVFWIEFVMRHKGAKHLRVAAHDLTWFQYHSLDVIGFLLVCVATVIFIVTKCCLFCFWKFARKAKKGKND
Further details: method as in PMID 23230132. The note with it: UGT2B7-catalyzed ethanol glucuronidation; cited from earlier work.

Like-named read-outs stand apart in the source and are kept apart here.

On to `O=C(c1cccc2ccccc12)c1cn(CCCCCF)c2ccccc12` [AM-2201, 1-(5-fluoropentyl-1H-indol-3-yl)-(naphthalene-1-yl)methanone], for which the IC50 in series [1] was under 50 µM; in series [1] (read-out: IC50 (μM) With Preincubation, Phenacetin O-deethylase, CYP1A2, 30 min preincubation with NADPH) it was under 50 µM; in series [2], under 50 µM; in series [2] (read-out: IC50 (μM) With Preincubation, Coumarin 7-hydroxylase, CYP2A6, 30 min preincubation with NADPH), under 50 µM; in series [3], 21.9 µM; in series [3] (IC50 (μM) No Preincubation, Bupropion hydroxylase, CYP2B6, human liver microsomes, 50 μM bupropion), under 50 µM. For the same compound, the IC50 is 31.3 µM in series [5]; under 50 µM in series [5] (IC50 (μM) No Preincubation, [S]-Mephenytoin 4′-hydroxylase, CYP2C19, human liver microsomes, 100 μM [S]-mephenytoin); under 50 µM in series [6]; under 50 µM in series [6] (read-out: IC50 (μM) With Preincubation, Bufuralol 1′-hydroxylase, CYP2D6, 30 min preincubation with NADPH). The maximal inactivation rate constant (kinact) in series [4] (human, liver microsomes, pH 7.4, probe amodiaquine 2 µM (N-deethylation), read-out: Kinact (converted)) was 0.000867 s⁻¹; in series [4] it was 0.00086 s⁻¹. Also, in series [4] (pooled liver microsomes, pH 7.4, probe amodiaquine (N-deethylation), CYP2C8 amodiaquine N-deethylation, human liver microsomes and NADPH, read-out: lowering of IC50 after 30-min pre-incubation vs without pre-incubation), the IC50 shift at 0.5 h is over 2.5.

For the compound `C=C(C)[C@@H]1CCC(C)=C[C@H]1c1c(O)cc(CCCCC)cc1O` [cannabidiol], the Ki in series [7] was 9.8 µM.

The IC50 is the concentration that gives 50% inhibition. In general, kinact refers to the maximal first-order rate at which the target is inactivated. For orientation: Ki means the equilibrium dissociation constant of an inhibitor or competing ligand from its target.

Source of the values: article PMC6155437, “AM-2201 Inhibits Multiple Cytochrome P450 and Uridine 5′-Diphospho-Glucuronosyltransferase Enzyme Activities in Human Liver Microsomes” (Molecules : A Journal of Synthetic Chemistry and Natural …, 2017).
